Literature values as cited in US12128121B2, “Compositions comprising organo-silanol compounds, and applications” (EXSYMOL, priority 2020, dated 2024).
Read-outs that look alike come from different tables or passages of the source.

Substance: orthosilicic acid
- concentration in water (as silicon, orthosilicic acid): < 56 mg Sill
- concentration in water (limit before self-condensation): < 2 mM
